Assay results published in PubChem BioAssay AID463215 (Sanford-Burnham Center for Chemical Genomics, 2010).
The list shows a part of the results, in another mix than the full data. Active and inactive are the calls of the source.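 Rule for the calls: active = inhibition of yeast growth at or above a set limit in either of two replicates at 10 µM; inactive = the rest.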

Experiment: TIM10 isogenic control strain growth inhibition – single concentration, luminescence, S. cerevisiae, counter-screen for tim10-1 synthetic lethality project, confirmation (AID 463215);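 note: isogenic wild-type TIM10 control yeast grown in succinate dextrose medium; this counterscreen used the strain with wild-type TIM10; 0% = yeast with DMSO and 100% = medium wells lacking yeast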
Settings: BacTiter-Glo luminescence, 24 h, at 10 µM, active compounds read high

Row | SMILES | inhibition
1 | CCOC(=O)N1CCC(Nc2ccc(F)cc2)CC1 | inactive: 2.25%
